Source: patent US20260174734A1, “PHARMACEUTICAL COMPOSITION” (MEXICHEM FLUOR S.A. DE C.V., priority 2016, published 2026)

Assay: In vitro aerosolization performance from MDI (Next Generation Impactor)
Format: physicochemical
Description: The nominal dose of glycopyrronium bromide was 50 μg, the nominal dose of indacaterol was 100 μg and the nominal dose of fluticasone propionate was 125 μg.

With `C[N+]1(C)CCC(OC(=O)C(O)(c2ccccc2)C2CCCC2)C1` (stereo not drawn) [Glycopyrronium Bromide, glycopyrronium bromide] the “FPFED (%) fine particle fraction of the emitted dose” value (shortened to “FPFED (%) fine particle fraction”) (HFA-134a propellant, T = 0, combination formulation, MDI) was 28.7 ± 0.2%, the “FPFED (%) fine particle fraction” value (HFA-134a propellant, T = 1 month @ 40° C./75% RH, valve down) was 29.4 ± 0.5% and the “FPFED (%) fine particle fraction” value (HFA-152a propellant, T = 1 month @ 40° C./75% RH, valve down) was 45.8 ± 1.8%.
